Data published in patent publication US9415103B2, “Combination therapy to prevent DCIS formation and progression to breast cancer” (Yeda Research and Development Co. Ltd., priority 2011, dated 2016).

What was measured:
[1] = tested on: c-Myc and Cyclin D1 in MCF10A-HER2 spheroids; experiment: Immunoblotting of c-Myc and Cyclin D1 in spheroids grown in Matrigel; type: cell-based, human; settings: spheroids grown 4 days in Matrigel, then Trastuzumab (10 μg/ml) and/or GSI (1 μM) for two days; FIG. 4B
Procedure: FIGS. 4A-G illustrate that Notch3 promotes survival of HER2-overexpressing mammary cells. (4A) The relative expression levels of transcripts corresponding to c-Myc and Cyclin D1 (CCND1) were determined by applying quantitative real-time PCR to RNA samples from MCF10A and MCF10A-HER2 spheroids. (4B) MCF10A and MCF10A-HER2 cells were grown in Matrigel™ for 4 days and then the resulting spheroids were incubated in the presence of Trastuzumab (10 μg/ml) and/or a gamma-secretase inhibitor (GSI, 1 μM). Two days later, cells were extracted and subjected to immunoblotting, as indicated. (4C) Monolayers of MCF10A-HER2 cells stably transduced with control or Notch3 shRNAs were lysed and immunoblotted for c-Myc and Cyclin D1. […] The fraction of lumen-filled spheroids on day 8 was quantified by counting 100 spheroids in each treatment group. […] The fractions of filled spheroids were determined as in FIG. 4F.
Morphogenesis assays: Cells were gently trypsinized, washed and re-suspended in assay medium (DME/F12 supplemented with 2% horse serum, 10 μg/ml insulin, 1 ng/ml cholera toxin, 100 μg/ml hydrocortisone, and antibiotics) to a concentration of 10^5 cells per 4.0 ml. […] Each morphometric quantification was performed in triplicates and repeated thrice. […]

MCF10A-HER2 spheroids = experiment: Morphogenesis assay in Matrigel: luminal filling and cleaved Caspase-3 staining by confocal microscopy; type: cell-based, human; settings: spheroids grown 4 days, then Trastuzumab and/or GSI for up to 4 additional days; FIG. 4F
Procedure: FIGS. 3A-D illustrate that enhanced survival and proliferation of HER2-overexpressing cells are enabled by Notch3. (3A) Extracts of monolayers of MCF10A cells and MCF10A-HER2 cells stably expressing control shRNA or shRNA targeting Notch3 were immunoblotted with the indicated antibodies. (3B) Proliferation of monolayer MCF10A and MCF10A-HER2 cells stably expressing the indicated shRNAs was determined using the MTT assay. Averages and standard deviation values (bars) of triplicates are presented. […] The number of spheroids per well was determined in triplicates and the average and standard deviations (bars) are presented (lower left panel). […] The bar graph presents the average fractions (±S.D., bars) of lumen-filled spheroids, as determined by analyzing 100 spheroids of each group.
FIGS. 4A-G illustrate that Notch3 promotes survival of HER2-overexpressing mammary cells. (4A) The relative expression levels of transcripts corresponding to c-Myc and Cyclin D1 (CCND1) were determined by applying quantitative real-time PCR to RNA samples from MCF10A and MCF10A-HER2 spheroids. […] The fraction of lumen-filled spheroids on day 8 was quantified by counting 100 spheroids in each treatment group. […] The fractions of filled spheroids were determined as in FIG. 4F. […]

Trastuzumab
c-Myc and Cyclin D1 protein levels [1]: reduced | apoptosis of luminal cells (cleaved Caspase-3) (MCF10A-HER2 spheroids): enhanced
